Values quoted from earlier work as cited in patent US20090137538A1, “METHOD OF TREATING ATROPHIC VAGINITIS” (priority 2006, published 2009).
Where two headings read alike, the source gives them in different places.

Test system: endometrium
Conditions: cited from earlier work

C[C@]12CC[C@@H]3c4ccc(O)cc4CC[C@H]3[C@@H]1C[C@@H](O)[C@@H]2O [Estriol, 16-alpha, 17-beta, estra 1,3,5 (10) triene 3, 16, 17-triol]
odds ratio for endometrial atypical hyperplasia (in vivo, po): 8.3 | odds ratio for endometrial atypical hyperplasia (oral use, exposed less than 5 years, never use 1.0): 2.2
